Assays:
TLR9-activated pDCs = test: IFNA gene expression (Q-PCR) in pDCs activated with TLR9 agonist CpG-C274; type: cell-based, human
pDCs = test: Intracellular ATP in pDCs (ATP determination kit); type: cell-based, human; settings: TM or TG with pyruvate 10 mM or α-KG 10 mM for 3 h, then TLR9 agonist; 2.5 h; FIGS. 3E-3H
Description: Supernatants were removed, and cells were deproteinated in 0.5 ml of 0.5M MPA on ice for 5 min, followed by centrifugation at 10000×g for 5 min at 4° C. The deproteinated samples were neutralized with 25 μl of potassium carbonate, and then centrifugation at 10000×g for 5 min at 4° C. The supernatant was removed and deproteinated samples were used for pyruvate assay. For ATP determination, ATP determination kit (Sigma: A22066) was used in pDCs extracts as per the manufacture protocol.

## O.O=C([O-])CCC(=O)C(=O)[O-].[Na+].[Na+] [α-KG, α-ketoglutaric acid disodium salt hydrate]
TLR9-activated pDCs
  IFNA expression by TLR9-activated pDCs under ER stress with metabolite supplementation: rescued
pDCs
  intracellular ATP levels under ER stress with metabolite supplementation: restored

From patent US20240033277A1, “METHODS FOR TREATING AUTOIMMUNE DISEASES” (NEW YORK SOCIETY FOR THE RELIEF OF THE RUPTURED AND …, priority 2020, published 2024)
